Broadly, the Ki is the dissociation constant of the complex between target and ligand, obtained from inhibition or displacement. Low values mean a stronger hold on the target, high ones a looser hold on the target.

In this experiment the target is T1, ETB receptor (Cavia porcellus, UniProt H0VTF3).
T1 construct: Guinea pig cerebella were homogenized; from tissue; host or cells: guinea pig cerebellum membranes
T1 sequence (H0VTF3 27-415): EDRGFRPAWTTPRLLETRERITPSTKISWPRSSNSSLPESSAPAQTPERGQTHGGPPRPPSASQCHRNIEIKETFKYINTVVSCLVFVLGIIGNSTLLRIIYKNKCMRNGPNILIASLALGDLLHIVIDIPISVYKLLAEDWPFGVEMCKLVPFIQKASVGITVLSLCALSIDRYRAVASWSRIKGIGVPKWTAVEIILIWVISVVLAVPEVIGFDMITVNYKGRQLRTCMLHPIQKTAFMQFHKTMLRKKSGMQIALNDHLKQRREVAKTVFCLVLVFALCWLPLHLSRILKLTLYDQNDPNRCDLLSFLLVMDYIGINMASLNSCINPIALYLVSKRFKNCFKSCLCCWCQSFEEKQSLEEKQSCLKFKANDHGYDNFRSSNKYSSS
The experiment can be described thus: ETB receptor binding assay ([125I]-RZ3) on guinea pig cerebellar membranes. As to conditions: Table III.

With `COc1nc(OC(C(=O)O)C(OC)(c2ccccc2)c2ccccc2)nc2c1CCO2` (centres unmarked) [Compound I-87], the Ki came to 57 nM.
In the case of `COc1cc(C)nc(OC(C(=O)O)C(OC)(c2ccccc2)c2ccccc2)n1` (centres unmarked) [Compound I-103], affinity was put at a Ki of 29 nM.

(Values after patent publication US6030975A, “Carboxylic acid derivatives, their preparation and use in treating cancer” (priority 1997, dated 2000).)
